Read-outs that look alike come from different tables or passages of the source.
How the values were obtained:
[1] = target: porcine pancreatic elastase (Sus scrofa, UniProt P00772); test: Inhibition constant KI (Dixon method) on pancreatic elastase, hydrolysis of succinyl-tri-L-alanine-paranitroanilide; settings: read-out: K T^ (a) pancreatic, 25° C., TRIS 0.2 M buffer, pH 8, absence of any organic solvent
Description: (§1) This latter was purified according to the Travis method (Baugh, R. J. and Travis, J. (1976), Biochemistry, 15, 4, 836). The method of study used is the conventional method of Dixon (Dixon, M., (1953), Biochemical Journal, 55, 1970) for measuring the inhibition constants KI of the compounds of the invention with regard to the hydrolysis reactions of the succinyl-tri-L-alanine-paranitroanilide catalysed by the two above elastases (Bieth J., Spiess B. and Wermuth C. G. (1974) Biochemical Medicine, 11, 350). In certain cases (leucocytal elastase) the inhibitory power of the compounds studied was measured by means of the I50 concentration of these compounds inducing 50% inhibition of the hydrolysis of the succinyl-tri-alanine-paranitroanilide at a 10^-3 M concentration catalysed by the enzyme. […] All the measurements were made at 25° C. in a 0.2 Molar buffer solution of tri-hydroxymethyl-aminomethane at pH 8.
(§2) Table E below lists the results obtained for the compounds of formula (I) as well as the reference compounds (A), acetyl-L-prolyl-L-alanyl-L-prolyl-L-alaninal, for the pancreatic elastase (Thompson, R. C., Biochemistry (1973), 17, 1, 47) and (B), oleic acid, for the leucocytal elastase (Ashe, B. M. and Zimmerman, M. (1977), Biochem. Biophys. Res. Comm., 75, 194).

Sequences of proteins named here, by UniProt entry; tags and fusion partners are left off. Residues count along the entry.
UniProt P00772, 27-266 limits assumed: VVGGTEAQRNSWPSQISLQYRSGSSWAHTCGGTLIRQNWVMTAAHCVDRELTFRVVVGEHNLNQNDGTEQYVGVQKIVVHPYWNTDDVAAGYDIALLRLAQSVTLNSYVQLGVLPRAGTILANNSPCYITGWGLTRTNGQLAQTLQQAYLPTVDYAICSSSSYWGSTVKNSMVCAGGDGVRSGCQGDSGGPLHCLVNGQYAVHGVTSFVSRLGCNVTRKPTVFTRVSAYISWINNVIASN
UniProt P08246, 30-267 limits assumed: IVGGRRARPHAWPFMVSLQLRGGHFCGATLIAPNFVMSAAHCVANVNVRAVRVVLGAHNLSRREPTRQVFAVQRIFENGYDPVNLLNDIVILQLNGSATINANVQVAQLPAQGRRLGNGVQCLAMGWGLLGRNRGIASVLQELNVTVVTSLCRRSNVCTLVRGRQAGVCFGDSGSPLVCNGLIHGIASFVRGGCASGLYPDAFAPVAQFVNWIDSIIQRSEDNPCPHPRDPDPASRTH

leucocytal elastase [2] = target: T1, leucocytal elastase (Homo sapiens, UniProt P08246); test: Inhibition constant KI (Dixon method) on leucocytal elastase, hydrolysis of succinyl-tri-L-alanine-paranitroanilide; settings: read-out: K T^ (a) leucocytal; 25° C., TRIS 0.2 M buffer, pH 8; absence of any organic solvent; tested form: HCl
Description: as §1, §2

leucocytal elastase [3] = target: T1, leucocytal elastase; test: I50 on leucocytal elastase, hydrolysis of succinyl-tri-alanine-paranitroanilide at 10^-3 M; settings: read-out: T 50^ (b) leucocytal, 25° C., TRIS 0.2 M buffer, pH 8, substrate 10^-3 M, in the presence of 50 % dimethylformamide (footnote)
Description: as §1

| Ki ([1]; tested form: HCl) [µM] | Ki (leucocytal elastase [2]) [µM] | IC50 (leucocytal elastase [3]; tested form: HCl) [µM] | Ki ([1]; tested form: 2HCl) [µM] | IC50 (leucocytal elastase [3]; tested form: 2HCl) [µM] | Structure (SMILES) |
| --- | --- | --- | --- | --- | --- |
| 0.07 | 0.7 | 4.8 |  |  | C[C@H](NC(=O)[C@H](CCCCN)NC(=O)C(F)(F)F)C(=O)Nc1ccc(N(C)C)cc1 |
|  |  |  | 0.15 | 140 | NCCCC[C@H](NC(=O)[C@H](CCCCN)NC(=O)C(F)(F)F)C(=O)Nc1ccc(C(F)(F)F)cc1 |
